# From PubChem BioAssay AID504634 (The Scripps Research Institute Molecular Screening Center, 2011)
# The chains behind the UniProt entries cited, without tags or fusion partners.
# UniProt P47898, whole entry, looked up: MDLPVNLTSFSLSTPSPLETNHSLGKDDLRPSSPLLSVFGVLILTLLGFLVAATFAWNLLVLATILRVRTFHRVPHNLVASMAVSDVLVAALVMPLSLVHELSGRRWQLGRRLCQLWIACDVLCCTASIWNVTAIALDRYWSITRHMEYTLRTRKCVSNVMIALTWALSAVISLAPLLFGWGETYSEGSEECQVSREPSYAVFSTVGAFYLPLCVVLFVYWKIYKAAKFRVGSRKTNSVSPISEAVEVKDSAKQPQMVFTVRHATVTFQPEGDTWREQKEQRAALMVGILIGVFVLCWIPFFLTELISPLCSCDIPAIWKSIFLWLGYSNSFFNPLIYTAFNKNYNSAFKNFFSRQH
# The entries are a selection whose mix differs from that of the whole data set. Calls of active or inactive are those of the source. Rule as the data show it: active = inhibition mostly above about 23% (no sharp cut-off); inactive = mostly below about 18%.
# Target: 5-hydroxytryptamine receptor 5A (Homo sapiens) (UniProt P47898)
# Assay: inverse agonism at human 5-HT5A receptor – cell-based, luminescence, full-deck HTS, counter-screen for OPRM1-OPRD1 heterodimer inverse agonist project, primary screen (AID 504634);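 also: 0% = cells with DMSO and 100% = no-cell wells with DMSO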
# Conditions: HTR5A cell line, at 9.3 µM, hits give high values
row,SMILES,inhibition
1,Fc1ccc2c(c1)nnn2C1CCN(Cc2nnnn2CCc2ccccc2)CC1,inactive: -23.6%
2,O=C(Cn1cnc2ccccc21)Nc1ccc(C(=O)O)cc1,inactive: -24.5%
3,O=C(C1COc2ccccc2O1)N1CCn2c(nc3ccccc32)C1 (stereo not given),inactive: -3.64%
4,C[C@@H]1C=CCP(=O)(Oc2ccccc2)O1 (stereo not given in full),inactive: 8.37%
5,C[C@H](O)[C@@H]1C(=O)N2CCc3ccc(-c4ccccc4)cc3[C@@H]2C[C@@H]1N(C)C(=O)c1ccc(C#N)cc1,inactive: -3.47%
6,O=C(CCNC(=O)N1CCn2c1nc1ccccc12)NCc1ccccc1Cl,inactive: -1.94%
7,CN(C)CCn1c(N)nc2ccccc21,inactive: -22.5%
8,CN(C)C(=O)CSc1nc2ccccc2n1CC(=O)N1CCN(c2ccccc2)CC1,inactive: 3.05%
9,CCC(=O)Nc1nc2ccccc2n1CCN(C)C,inactive: -22.9%
10,C[C@H]1OP(=O)(Oc2ccccc2)C[C@@H]2O[C@@H]21 (stereo not given in full),inactive: 21.3%
11,Cc1ccc2c(c1)C1CN(C)CCC1N2Sc1ccccc1[N+](=O)[O-] (stereo not given),inactive: 7.07%
12,Cc1ccc2c(c1)C1CN(C)CCC1N2C(=O)Nc1cccc(Cl)c1 (stereo not given),inactive: -24.7%
13,CCOc1ccc(S(=O)(=O)N(C)c2ccc(OCC(=O)N3c4ccc(C)cc4C4CN(C)CCC43)cc2)cc1 (stereo not given),inactive: -4.66%
14,Cc1ccccc1Oc1ccc2c(c1)[C@@H]1C[C@H](N(C)C(=O)Nc3cc(Cl)cc(Cl)c3)[C@H]([C@H](C)O)C(=O)N1CC2,inactive: -25.5%
15,CC(C)(C)NC(=O)Cn1c(SCC(=O)Nc2nccs2)nc2ccccc21,inactive: -0.9%
16,Cc1ccccc1CN(C)C(=O)COC(=O)C(O)(c1ccccc1)c1ccccc1,inactive: -29.8%
17,O=C(CCCCCNC(=O)N1CCn2c1nc1ccccc12)N[C@H](C(=O)O)c1ccccc1,inactive: -17.1%
18,Cc1ccc2c(c1)C1CN(C)CCC1N2C(=O)COc1ccc(N(C)S(=O)(=O)c2cccs2)cc1 (stereo not given),inactive: -1.25%
19,COC(=O)c1ccccc1NC(=O)Cn1c(-c2nonc2N)nc2ccccc21,inactive: -13.7%
20,Cn1c(=O)c2c(ncn2CC(=O)N/N=C/C(Cl)=C/c2ccccc2)n(C)c1=O,inactive: 30.9%
21,O=C(Cn1cnc2ccccc21)N/N=C/C(Br)=C/c1ccccc1,inactive: -8.23%
22,COC(=O)C1(C)COP(=O)(NCc2ccccc2)OC1 (stereo not given),inactive: 6.23%
23,CC(NC(=O)CCCCCNC(=O)N1CCn2c1nc1ccccc12)c1ccccc1 (stereo not given),inactive: 5.03%

row,SMILES,inhibition
1,N#C/C(=C\c1ccc(N(CCBr)CCBr)cc1)C(N)=O,inactive: -24.3%
2,O=C(Cn1c(SCC(=O)N2CCCc3ccccc32)nc2ccccc21)N1CCCC1,inactive: 6.72%
3,Cc1ccc2c(c1)C1CN(C)CCC1N2S(=O)(=O)c1cccc(F)c1 (stereo not given),inactive: -5.54%
4,CC(=O)c1ccc(N2CC2c2ccncc2)cc1 (stereo not given),inactive: 11.5%
5,CC(O)CNc1nc2ccccc2n1CC(=O)NCCc1ccc(Cl)cc1 (stereo not given),inactive: -6.36%
6,O=C(Nc1nc2ccccc2n1CCN1CCCCC1)C1CCCCC1,inactive: 13.6%
7,CC1Cc2ccccc2N1C(=O)Cn1cnc2c1c(=O)n(C)c(=O)n2C (stereo not given),inactive: 4.27%
8,CC(NC(=O)CCNC(=O)N1CCn2c1nc1ccccc12)c1ccccc1 (stereo not given),inactive: -12.8%
9,Cc1ccc(-c2csc(NCCn3c(C(F)(F)F)nc4ccccc43)n2)cc1,inactive: -8.35%
10,Cn1c(=O)c2c(nc(CN3CCN(C(=O)c4ccco4)CC3)n2CC(N)=O)n(C)c1=O,inactive: -10.9%
11,COc1ccccc1C(=O)Nc1ccc2c(c1)nc1n2CCN(C2CCCCC2)C1,inactive: -23%
12,O=C(Cn1cnc2c(NCc3ccccc3)ncnc21)N1CCN(c2ccccn2)CC1,inactive: 5.05%
13,O=C(Nc1nc2ccccc2n1CCN1CCCCC1)c1ccco1,inactive: -6.01%
14,O=C(Cn1c(-c2cscn2)nc2ccccc21)Nc1ccccc1F,inactive: -7.75%
15,CCC(=O)Nc1cccc(C(=O)/C=C/c2cc(Br)ccc2OC)c1,inactive: -23.1%
16,O=S(=O)(c1ccccc1)c1nnn2c1nc(NC1CCN(Cc3ccccc3)CC1)c1ccccc12,inactive: -8.27%
17,CCCS(=O)(=O)N1CCn2c(nc3ccccc32)C1,inactive: -2.62%
18,CC(=O)NC(C)c1nc2ccccc2n1CC(=O)N1C(C)CCCC1C (stereo not given),inactive: -9.73%
19,Cc1ccc(CN2C(=O)c3ccccc3NC23CCN(Cc2ccccc2)CC3)cc1,inactive: 11.7%
20,CC(C)NC(=O)Cn1c(SCC(=O)N2c3ccccc3CC2C)nc2ccccc21 (stereo not given),inactive: -2.33%
21,O=P1(N(CCCl)CCCl)OCCC2CCCCN21 (stereo not given),inactive: 8.39%
22,O=C(c1ccc(Cl)cc1)N1CCn2c1nc1ccccc12,inactive: -3.63%
23,O=C(Cn1cnc2c(NCc3ccccc3)ncnc21)NCc1ccc2[nH]ccc2c1,inactive: -1.78%

row,SMILES,inhibition
1,CCOC(=O)CSc1nc2ccccc2n1CC(=O)N(C(C)C)C(C)C,inactive: 15%
2,O=S(=O)(c1ccccc1)N1CCn2c(nc3ccccc32)C1,inactive: -3.84%
3,Cn1c(=O)c2c(ncn2CC(=O)N2CCN(C(=O)c3ccco3)CC2)n(C)c1=O,inactive: -0.32%
4,O=C1NCN(c2ccccc2)C12CCNCC2,inactive: 3.84%
5,COc1ccc(NS(=O)(=O)c2cc(NC(=O)Cn3cnc4c3c(=O)n(C)c(=O)n4C)ccc2C)cc1,inactive: -6.35%
6,Cn1c(=O)c2c(ncn2CCNC2=NCCCCC2)n(C)c1=O,inactive: 12.3%
7,Cc1nc2cc(C(F)(F)F)ccc2n1CCNc1nc(-c2cc(Cl)c(N)c(Cl)c2)cs1,inactive: 3.41%
8,CC(C)(C)C(=O)N1CCn2c1nc1ccccc12,inactive: 7.97%
9,Cc1ccc(Cn2c(=O)c3c(nc4n3CCN4Cc3ccco3)n(C)c2=O)cc1,inactive: 1.5%
10,CCOC(=O)C1CCCN(C(=O)Cn2cnc3c2c(=O)n(C)c(=O)n3C)C1 (stereo not given),inactive: -18%
11,Cn1c(=O)c2ncn(CC(=O)Nc3ccc(N4CCOCC4)cc3)c2n(C)c1=O,inactive: -29.4%
12,O=C(C1CCCN1S(=O)(=O)c1cccc2cccnc12)N1CCn2c1nc1ccccc12 (stereo not given),inactive: -13.4%
13,O=C(Cn1c(-c2ccco2)nc2ccccc21)N1CCCCC1,inactive: 0.91%
14,S=C(Nc1ccccc1)N1CCn2c1nc1ccccc12,inactive: -7.91%
15,c1ccc(CN2CCN(CCN3CCn4c3nc3ccccc34)CC2)cc1,inactive: 0.18%
16,Cc1nc2ccccc2n1C1CC(=O)N(Cc2ccccc2)C1=O (stereo not given),inactive: -11.8%
17,CC(c1ccccc1)N1CCn2c(nc3cc(NS(C)(=O)=O)ccc32)C1 (stereo not given),inactive: -16.9%
18,COc1cc(/C=N/NC(=O)Cn2cnc3c2c(=O)n(C)c(=O)n3C)ccc1O,inactive: 4.77%
19,CCSc1nc2ccccc2n1CC(=O)N1CCOCC1,inactive: -6.23%
20,O=C(NC1CCS(=O)(=O)C1)NP(=S)(Oc1ccccc1)Oc1ccccc1 (stereo not given),inactive: -1.82%
21,COc1cccc(NC(=O)[C@H](C)NC(=O)N2CCn3c2nc2ccccc23)c1,inactive: -1.04%
22,CCNC(=S)/N=C(\N)N[N+](=O)[O-],inactive: -12.3%
23,Cc1ccc(OCCNC(=O)Cn2cnc3c(=O)n(C)c(=O)n(C)c32)cc1C,inactive: 5.71%

row,SMILES,inhibition
1,CN(C)C(=O)Oc1noc2ccccc12,inactive: -7.32%
2,O=c1c2cc([N+](=O)[O-])ccc2[nH]c2c([N+](=O)[O-])cc([N+](=O)[O-])cc12,inactive: -2.13%
3,CN(C)CCn1cnc2ccccc21,inactive: 0.48%
4,Cc1ccc(CNC(=O)Cn2cnc3c(NC(=O)OCc4ccccc4)ncnc32)o1,inactive: -30.2%
5,CCOC(=O)C1=C(Cn2cnc3ccccc32)NC(=O)NC1c1ccc(Cl)cc1 (stereo not given),inactive: 9.95%
6,Cc1ccccc1OP(=O)(Nc1ccccn1)Oc1ccccc1C,inactive: -4.68%
7,CCc1cccc(C)c1N(C(=O)Cn1c(CO)nc2ccccc21)C(C)COC (stereo not given),inactive: 12.5%
8,CC(NC(=O)COC(=O)C(O)(c1ccccc1)c1ccccc1)c1ccccc1 (stereo not given),inactive: 22.6%
9,CC1CCCN(C(=O)Cn2cnc3c2c(=O)n(C)c(=O)n3C)C1 (stereo not given),inactive: 8.93%
10,Cn1c(=O)c2c(ncn2CC(=O)N2CCN(c3ccccc3)CC2)n(C)c1=O,inactive: -22.8%
11,C[C@H](O)[C@@H]1C(=O)N2CCc3ccc(-c4cccc(F)c4)cc3[C@@H]2C[C@@H]1N(C)C(=O)Nc1ccccc1,inactive: -1.36%
12,COCCN1CCn2c(nc3cc(Nc4nnc(C)c5ccccc45)ccc32)C1,inactive: -9.37%
13,COCCNC(=O)Cn1c(=O)n(C)c2ccccc21,inactive: 3.05%
14,Clc1ccc(N2CCN(Cc3c[nH]c4ncccc34)CC2)cc1,inactive: -1.37%
15,Cc1ccc2c(c1)C1CN(C)CCC1N2C(=S)NC(=O)c1ccc(Cl)cc1Cl (stereo not given),inactive: -2.76%
16,O=C(Cn1c(=O)n(CC(=O)NCc2ccccc2)c2ccccc21)NCc1ccccc1,inactive: 2.08%
17,CC(/C=N\NC(=O)Cn1c(C)nc2ccccc21)=C\c1ccccc1,inactive: -6.65%
18,CCCC(=O)Nc1ccc2c(c1)nc1n2CCN(CCOC)C1,inactive: 6.25%
19,Cc1ccc(C)c(Cn2c(=O)c3c(nc4n3CCN4Cc3ccco3)n(C)c2=O)c1,inactive: -1.23%
20,CCC(=O)N1C2C3N(C(=O)CC)C1C1N(C(=O)CC)C(C(N1C(=O)CC)N3C(=O)CC)N2C(=O)CC,inactive: -9.38%
21,O=C(OC1CN2CCC1CC2)c1ccccc1 (stereo not given),inactive: -16.1%
